## Ab-14 heavy chain CDR variants: yeast mating affinities

Data: MIT Lincoln Laboratory AlphaSeq set, Engelhart et al. 2022, doi:10.1038/s41597-022-01779-4, as distributed in FLAb.

Target peptide (SARS-CoV-2 spike, HR2 region): PDVDLGDISGINAS

Parent: Ab-14, a human scFv built as VH, three GGGGS repeats, VL. Only the CDRs of the heavy chain vary.
VH: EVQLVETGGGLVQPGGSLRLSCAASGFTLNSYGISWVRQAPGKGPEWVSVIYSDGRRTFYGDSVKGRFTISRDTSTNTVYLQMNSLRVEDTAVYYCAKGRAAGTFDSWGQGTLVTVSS
VL: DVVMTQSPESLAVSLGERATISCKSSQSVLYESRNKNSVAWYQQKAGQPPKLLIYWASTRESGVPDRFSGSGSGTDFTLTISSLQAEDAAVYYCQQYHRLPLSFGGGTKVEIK

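Phage display of a naive human antibody library on the peptide gave the parent. The library (AAYL49) carries one to three amino acid substitutions per variant, with no insertions or deletions. Affinity was read by AlphaSeq, a pooled yeast mating assay with surface-displayed partners. The frequency of each diploid, read from paired DNA barcodes, reflects how well the two displayed proteins bind. Each replicate has its own calibration line, from reference interactions of the BCL2 family. Each pool was mated in three replicate cultures.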

Variants are written as CDR1, CDR2 and CDR3 of the heavy chain (limits as in the source). Parent: GFTLNSYGIS, VIYSDGRRTFYGDSVK, GRAAGTFDS. Scale: log10 of Kd in nM, estimated from mating counts; low values are strong binders. "ND" means that the variant was in the library but no mating with the target was seen in that replicate; the authors take this as a sign of poor binding, and no number exists. Background: pairings of library AAYL49 with three empty control strains gave a value in 15% of cases (median 4.06, 5th percentile 2.83). Values in that range, when seen in few replicates, are hard to tell from nonspecific mating. For each scFv, signals with the empty controls are counted beside the result, with their mean in brackets.

CDR-H1	CDR-H2	CDR-H3	log10 Kd (nM) by replicate	control signals
GFKLNSYGIS	VIYSDGRRTFYGDSVK	GRAKGIFDS	1.12 / 1.70 / 1.23	0 of 9
GFTLNSYGIS	LIYSDGRRTFGGDSVK	GRAAGNFDS	ND / ND / ND	0 of 9
GFTLNSYMIS	VAPSDGRRTFYGDSVK	GRAAGTFDS	ND / ND / ND	1 of 9 (3.88)
GFTLNSYGIS	VTYSFGRRTWYGDSVK	GRAAGTFDS	ND / ND / 2.72	0 of 9
GFTLNSYGIS	VIYSDGRRSFYGNSVK	GRAGGTFDS	1.62 / 2.55 / 2.12	0 of 9
GFTLNSYGIS	VIYSDGRRTFYGDDVK	GRAAGTFKS	1.36 / 1.48 / 1.46	2 of 9 (3.57)
GFTLNSEGIS	VDGSDGRRTFYGDSVK	GRAAGTFDS	ND / ND / ND	2 of 9 (3.32)
GFTLNSYPIS	NIYSDGRRTFYADSVK	GRAAGTFDS	4.79 / ND / ND	0 of 9
GFTLNSYGDS	VIYSDGRMTFYGDSVK	GRAAGKFDS	ND / ND / ND	1 of 9 (5.29)
GFTLNSYGIS	VIYSDGPCTFYGDSVK	GRADGTFDS	ND / ND / ND	0 of 9
GFTLNSYGIS	VIYSDGRRTFYGMSVK	GRRAGTFDS	ND / 3.58 / ND	1 of 9 (3.87)
GFTLNSYGIS	VIYSDPRRTFYGDSVA	GRAAGTFDS	ND / ND / 4.34	0 of 9
GFTLNSYGIS	VMYSVGRRTFYGDSVK	GRAAFTFDS	ND / ND / ND	0 of 9
GFTLNSYGIS	VIYSDGSRTFYGDSVN	GRAAGTFDM	1.63 / 1.66 / 1.76	3 of 9 (4.19)
GFTLNSYQIS	VIYSAGRRTFYGDSVK	IRAAGTFDS	ND / ND / ND	0 of 9
GHTLNSYGIK	VIYSDGRRTFYGDSVK	GFAAGTFDS	ND / ND / ND	0 of 9
GFTLNSYGIS	VIYSPQRRTFYGDSVC	GRAAGTFDS	ND / ND / ND	0 of 9
GFTLISYHIS	QIYSDGRRTFYGDSVK	GRAAGTFDS	ND / ND / ND	0 of 9
GFTLNSYGIK	VIYSDGRRTFYADSVK	GNAAGTFDS	ND / 2.59 / ND	0 of 9
GFTLNSYGIS	VIYRDGRRTFYGDSVK	GRHAGTFES	ND / ND / ND	0 of 9
NFTLESYGIS	VIYSDNRRTFYGDSVK	GRAAGTFDS	ND / ND / 5.40	0 of 9
GFTLNSYGIS	VILSDGRRTFNGDSVK	GRAAGTFDS	ND / ND / ND	1 of 9 (4.26)
GFTLISMGIS	VIYSDGRFTFYGDSVK	GRAAGTFDS	ND / ND / ND	3 of 9 (4.24)
GDTLNSYGIS	VCYSDKRRTFYGDSVK	GRAAGTFDS	5.27 / ND / ND	3 of 9 (4.12)
GFTLNSYGIS	VIYSDGRRTFFGDHDK	GRAAGTFDS	ND / ND / ND	0 of 9
GFTLNSYPIS	VIMSDGRRTKYGDSVK	GRAAGTFDS	ND / 3.21 / 5.04	5 of 9 (5.18)
GFTLNSYGIS	VIYSDGRRTFYGTSVK	GYAAGTFDS	1.81 / 1.67 / 1.76	0 of 9
GFTLNFYGGS	VIYSDGRRTFYGDSVK	GRQAGTFDS	ND / ND / ND	1 of 9 (3.78)
GFTLNTYQIS	VIYSDGRRTFYGDSVK	GRAAGTFDS	ND / 3.30 / ND	0 of 9
GFTLNGYGIS	VIYSDGRRTFYGDSVK	FRAAGTFDS	ND / ND / 5.00	4 of 9 (4.82)
GFTKNSYGIH	VIYSVGRRTFYGDSVK	GRAAGTFDS	ND / ND / ND	1 of 9 (1.90)
GFTLNSYGIS	VIYSDGGRTFYGDSVK	GRAAGTFAI	ND / ND / ND	1 of 9 (3.64)
GFTKNFYGIS	VIYSDGRRTFYGDSVK	WRAAGTFDS	ND / ND / ND	0 of 9
GKTLNQYGIS	VIYSDGRRTCYGDSVK	GRAAGTFDS	2.61 / 2.35 / 2.53	5 of 9 (4.04)
GFTLNSYGIS	VIYSDGRRTYYGDSVN	GEAAGTFDS	4.35 / 2.20 / 3.12	2 of 9 (3.64)
GFRLNSYGIS	VIYSDGRRTFPGDSVK	GRAADTFDS	ND / 3.59 / ND	0 of 9
GFTLNSYPIS	VIYSDGRRTFYGDSVK	GRAFGTMDS	ND / ND / ND	0 of 9
GLVLNSYGIS	VIYSDGRRTFYGDSVK	GRGAGTFDS	2.00 / 2.10 / 2.00	1 of 9 (3.57)
GFTLNSYGIS	VIYSDGRRTFYADSVP	RRAAGTFDS	ND / ND / ND	0 of 9
GFTLNSYGIS	VIYHDYRRTFTGDSVK	GRAAGTFDS	ND / ND / ND	1 of 9 (4.19)
GFTLNSYGIS	LIYSDGRRPFWGDSVK	GRAAGTFDS	5.78 / 5.16 / ND	4 of 9 (3.90)
GFTLNSYGIS	HIYSKGRRTFYGDSVK	GRAAGKFDS	ND / ND / ND	0 of 9
GFTLNSYGIY	VIYSDGRVTFYGDSVK	GRAAGTFDS	ND / ND / ND	1 of 9 (4.24)
GFTLNFYGIS	QIYSMGRRTFYGDSVK	GRAAGTFDS	ND / 3.15 / ND	0 of 9
GFTLNSYGIS	VIYSDGRRTFFGDSEY	GRAAGTFDS	4.00 / 3.46 / ND	0 of 9
HFTANSYGIS	VIYSDGRRTFYGDSVK	GRAAGYFDS	ND / 3.39 / 5.90	2 of 9 (5.18)
GFTLNSYGIS	VDYSDGYRTFDGDSVK	GRAAGTFDS	ND / ND / ND	0 of 9
GFTLNSLGIS	VIYSDGRRTFYGDSVK	GPAAGTQDS	ND / ND / ND	1 of 9 (5.09)
GNTLNSYGIS	VIVSDGRRTFYGDSVK	GRAAFTFDS	ND / ND / 3.57	2 of 9 (3.21)
GFDLRSYGIS	VIYSDGRLTFYGDSVK	GRAAGTFDS	3.92 / 2.76 / ND	1 of 9 (3.43)

For reference, 4 entries of the list once more:

{"CDR-H1": "GFTLNSEGIS", "CDR-H2": "VDGSDGRRTFYGDSVK", "CDR-H3": "GRAAGTFDS", "log10 Kd (nM) by replicate": "ND / ND / ND", "control signals": "2 of 9 (3.32)"}
{"CDR-H1": "GFTLNSYGIS", "CDR-H2": "VIYSDGRRTFYGDDVK", "CDR-H3": "GRAAGTFKS", "log10 Kd (nM) by replicate": "1.36 / 1.48 / 1.46", "control signals": "2 of 9 (3.57)"}
{"CDR-H1": "GFTLNFYGGS", "CDR-H2": "VIYSDGRRTFYGDSVK", "CDR-H3": "GRQAGTFDS", "log10 Kd (nM) by replicate": "ND / ND / ND", "control signals": "1 of 9 (3.78)"}
{"CDR-H1": "GFTLNSYMIS", "CDR-H2": "VAPSDGRRTFYGDSVK", "CDR-H3": "GRAAGTFDS", "log10 Kd (nM) by replicate": "ND / ND / ND", "control signals": "1 of 9 (3.88)"}